These are literature values, as cited in EP4003298B1 (Offhealth S.p.A., priority 2019, dated 2021).

The data set relates to eye. The following applies: cited from earlier work.

Consider “vitamin E - D-α-tocopherol polyethylene glycol (TPGS) [vitamin E TGPS]”, for which the “concentration with cytotoxic (irritating) effect on the eye” value was “greater than 0.5 % by weight”.
